Source: ChEMBL document CHEMBL3882738, “Dimethylarginine Dimethylaminohydrolase inhibitors and methods of use thereof” (2014)
Active and inactive are the calls of the source.

Amino acid sequences for entries named in this document (tags omitted). A change or cut given only in a name is not applied to a line headed by its entry.
UniProt O94760: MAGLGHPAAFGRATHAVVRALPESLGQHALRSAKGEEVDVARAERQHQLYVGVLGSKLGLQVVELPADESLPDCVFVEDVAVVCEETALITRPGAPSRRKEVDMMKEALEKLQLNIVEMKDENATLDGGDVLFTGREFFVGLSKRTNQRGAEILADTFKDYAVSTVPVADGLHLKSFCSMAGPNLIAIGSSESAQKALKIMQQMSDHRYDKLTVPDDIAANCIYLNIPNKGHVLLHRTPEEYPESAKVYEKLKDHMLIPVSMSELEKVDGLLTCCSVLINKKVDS

Assays:
[1] = target: T1, N(G),N(G)-dimethylarginine dimethylaminohydrolase 1 (Homo sapiens, UniProt O94760); assay: Inhibition of recombinant human DDAH1 expressed in Escherichia coli BL21 Star (DE3) using ADMA as substrate assessed as decrease in citrulline production at 50 uM preincubated with protein followed by substrate addition by colorimetric method
[2] = target: T1, N(G),N(G)-dimethylarginine dimethylaminohydrolase 1; assay: Inhibition of recombinant human DDAH1 expressed in Escherichia coli BL21 Star (DE3) using SMTC as substrate assessed as decrease in L-citrulline and methanethiol production at 50 uM by CPM-based fluorimetric assay
[3] = target: T1, N(G),N(G)-dimethylarginine dimethylaminohydrolase 1; assay: Inhibition of recombinant human DDAH1 expressed in Escherichia coli BL21 Star (DE3) using ADMA as substrate assessed as decrease in citrulline production after 4 hrs by colorimetric method
[4] = target: T1, N(G),N(G)-dimethylarginine dimethylaminohydrolase 1; assay: Inhibition of recombinant human DDAH1 expressed in Escherichia coli BL21 Star (DE3) using ADMA as substrate assessed as decrease in citrulline production at 50 uM after 4 hrs by colorimetric method

Measured: inhibition

COc1ccnc(C[S+]([O-])c2nc3cc(OC(F)F)ccc3[nH]2)c1OC (centres undefined) [PANTOPRAZOLE]
active: [1] | [2] | [3] Dose-dependent effect | [4]
